# Assay outcomes from PubChem BioAssay.
# PDI inh = PDI (human) enzyme inhibition; AID 588391; P07237; 0.052% of 350,000 active; PDI insulin aggregation turbidity, A650, 90 min; inhibition, % at 10 µM;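 active = mean inhibition across replicates of 30% or more, whatever share of single replicates reach that level; inconclusive = mean inhibition below 30% while every single replicate reaches 30%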
# Yeast UUG start = modulators of start codon recognition fidelity in yeast; AID 602363; hit rate 0.13% among 350,000; activity score, % at 18.7 µM; S. cerevisiae UUG-firefly luciferase reporter, luminescence/redox ratio;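 active = replicate mean at a twofold rise or more, about +100% in these data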;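 note: firefly luciferase made from a UUG start codon reports start codon fidelity; reporter light over untreated wells divided by growth signal over untreated wells; some hits fall short of that in this replicate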
# PglD DTNB = PglD (C. jejuni) enzyme inhibition; AID 602405; inhibition, % at 12.5 µM; purified PglD enzyme, DTNB colorimetric CoA detection; 0.098% of 360,000 active; in the data active = inhibition above about 16%, passing the limit was not always enough; inconclusive = no clear call, values can overlap the other calls
# ERp5 block = blocks human ERp5 reductase activity on insulin. ERp5 insulin aggregation, absorbance 650 nm, 90 min. Q15084. 0.05% of 350,000 active. inhibition, % at 9.99 µM;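 active = mean replicate inhibition above about 25%, with every replicate also reaching it, limit read from the data, passing the limit was not always enough; inconclusive = only one of those two criteria met; inactive = neither criterion met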
# FGF22 binding = FGF22 (human) thermal shift binding | Q9HCT0 | recombinant FGF22 thermal shift, SYPRO orange fluorescence; percent of sucrose octasulfate shift, DMSO zero | activity (Tm shift, normalised), % at 9.99 µM | 1.5% of 340,000 active;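 active = mean Tm shift, scaled 0 neutral to 100 positive control, at about 1.3% or above, every replicate too, limit read from the data; inconclusive = no clear call, values can overlap the other calls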
# ARNT TACC3 PPI = ARNT/TACC3 interaction disruption; Q9Y6A5; AlphaScreen His-ARNT PAS-B/GST-TACC3 binding, luminescence; TACC3 fragment carries E629A point mutation; inhibition, % at 9.99 µM; 0.66% of 390,000 active;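 active = mean inhibition of replicates at least 50% and at least half of replicates each reaching 50%; inconclusive = half or more replicates reach 50% but mean below 50%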;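 note: 0% = complete ARNT plus TACC3 wells and 100% = ARNT alone without TACC3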
# Active calls of the source: *; ? = inconclusive; / = not tested or not shown. Compounds with a hit are over-represented: about 1.9% of the library has one in this group of screens.
(1) O=C(C[C@@H]1CC[C@H]2[C@@H](COC[C@H](O)CN2Cc2ccc(Cl)cc2)O1)NCCc1ccccc1
(2) COc1cccc(-n2c(C)cc(/C=C3/C(=N)N4C(=NC3=O)SN=C4S(C)(=O)=O)c2C)c1
(3) c1ccc(Cn2nnc3c(Nc4ccc5c(c4)OCO5)nc(C4CC4)nc32)cc1
(4) COc1ccc(OC)c(Nc2nc(C3CC3)nc3c2nnn3Cc2ccccc2)c1
(5) CCOCC(=O)NC1CCc2cc(OC)c(OC)c(OC)c2-c2ccc(SC)c(=O)cc21 (stereo not given)
(6) COc1cc(C#N)ccc1OCC(=O)NCc1cccs1
(7) COc1ccccc1OCC(=O)NCc1cccs1
(8) COCCNC(=O)C(c1ccc(C)o1)N(CCOC)C(=O)Cn1nnc2ccccc21 (stereo not given)
(9) CCOc1ccccc1C(C(=O)NCCOC)N(CCOC)C(=O)Cn1nnc2ccccc21 (stereo not given)
(10) C[C@H](CO)N1C[C@H](C)[C@H](CN(C)C(=O)Cc2cccnc2)Oc2ncc(-c3cccnc3)cc2C1=O
Compound | 1 | 2 | 3 | 4 | 5 | 6 | 7 | 8 | 9 | 10
PDI inh | / | 6 | 66* | 0 | -6 | -2 | -4 | -13 | -4 | /
Yeast UUG start | -1 | -4 | / | / | / | / | -6 | / | / | -10
PglD DTNB | 3 | 9 | / | / | / | / | -1 | / | / | -3
ERp5 block | 0 | 1 | / | / | -2 | ? | / | -1 | 1 | 0
FGF22 binding | 0 | 1.4* | / | / | 43* | 42 | / | 44* | 0 | 0
ARNT TACC3 PPI | 0 | 18 | -4 | -2 | / | -6 | 45* | / | 3 | 0

# Entries listed so far marked active in PDI inh:
no. | compound | PDI inh | Yeast UUG start | PglD DTNB | ERp5 block | ARNT TACC3 PPI
3 | c1ccc(Cn2nnc3c(Nc4ccc5c(c4)OCO5)nc(C4CC4)nc32)cc1 | 66* | / | / | / | -4

# New compounds follow.
(11) O=C(NCc1ccccn1)c1ccc(Cl)c(S(=O)(=O)N2CCCCCC2)c1
(12) CN1CCN(C(=O)C[C@@H]2CC[C@H]3[C@@H](COC[C@@H](O)CN3Cc3cccc(Cl)c3)O2)CC1
(13) CCCCNCCCOc1ccc(C)cc1Br
(14) Cc1ccc(OCCCNCCO)c(Br)c1
(15) C[C@@H]1CN([C@@H](C)CO)C(=O)c2cccc(NS(=O)(=O)c3ccccc3)c2O[C@H]1CN(C)C(=O)NC1CCCCC1
(16) COC(=O)C1C(c2ccc(N(C)C)cc2)C(C(=O)OC)S(=O)(=O)CS1(=O)=O (stereo not given)
(17) COC(=O)C1=C(C)NC(C)=C(C(=O)OC)C1c1ccc(N(C)C)cc1
(18) O=C(O)C1Cc2ccccc2CN1S(=O)(=O)/C=C/c1ccccc1 (stereo not given)
(19) CS(=O)(=O)N1Cc2ccccc2CC1C(=O)O (stereo not given)
(20) Cc1cc(C)n2cc(CSCC(=O)O)nc2n1
Compound | 11 | 12 | 13 | 14 | 15 | 16 | 17 | 18 | 19 | 20
PDI inh | 8 | / | -1 | 4 | / | -7 | 2 | 1 | 1 | 1
Yeast UUG start | -27 | 10 | / | -18 | 6 | / | 1 | -10 | -12 | /
PglD DTNB | 1 | 3 | / | 2 | -1 | / | 0 | -4 | -3 | /
ERp5 block | 2 | -7 | -1 | / | -3 | 2 | / | 7 | -1 | /
FGF22 binding | 0 | 0 | 44* | / | 0 | 43* | / | 0 | 0 | /
ARNT TACC3 PPI | 46* | -1 | / | -23 | 7 | / | 21 | 46* | -2 | -13

# Screen by screen, as entered above:
# Entries 14–20 in ARNT TACC3 PPI read -23, 7, /, 21, 46*, -2, -13

# The listing continues.
(21) Cc1cc(C)n2cc(CSc3nnc(-c4ccccc4)c(-c4ccccc4)n3)nc2n1
(22) Cc1cc(C)n2cc(CSc3ncn[nH]3)nc2n1
(23) Cc1cc(C)n2cc(CSc3ccc(Br)cc3)nc2n1
(24) CNC[C@@H]1Oc2ccc(NC(=O)C3CC3)cc2C(=O)N([C@@H](C)CO)C[C@H]1C
(25) O=C(O)CC1=C(Nc2ccccc2)C(=O)N(c2ccccc2)C1c1ccc(F)cc1 (stereo not given)
(26) CC(C)Sc1nnc([C@H](Cc2c[nH]c3ccccc23)NC(=O)OC(C)(C)C)o1
(27) COc1ccc(NC(=O)N[C@@H]2CC[C@H](CCNC(=O)c3ccccc3F)O[C@@H]2CO)cc1
(28) O=C(Cc1ccccc1)NCC(=O)OCC(=O)c1ccccc1Cl
(29) O=C(CNC(=O)c1ccccc1)OCC(=O)c1ccccc1Cl
(30) Cc1n[nH]c(C)c1CCCCOc1ccccc1
(31) Cc1ccc(OCCCc2c(C)n[nH]c2C)cc1
Compound | 21 | 22 | 23 | 24 | 25 | 26 | 27 | 28 | 29 | 30 | 31
PDI inh | 4 | 14 | 7 | / | 2 | 44* | / | -7 | -2 | 7 | 1
Yeast UUG start | / | -18 | / | -22 | -13 | -7 | 10 | 1 | 35 | -33 | /
PglD DTNB | / | -2 | / | -2 | -6 | 2 | -1 | 3 | -6 | 3 | /
ERp5 block | -4 | 2 | 0 | -1 | 1 | / | -4 | 3 | 4 | 1 | 6
FGF22 binding | 0 | 43* | 43* | 0 | 43* | / | 0 | 112* | 0 | 44* | 0
ARNT TACC3 PPI | 8 | 0 | 0 | -6 | 5 | -6 | -8 | -2 | -4 | -1 | -1
